The values that follow come from patent publication US8569343B2, “Oligomer-opioid agonist conjugates” (Nektar Therapeutics, priority 2007, dated 2013).

Sequences of proteins named here, by UniProt entry; tags and fusion partners are left off. A change or cut given only in a name is not applied to a line headed by its entry.
UniProt P41145: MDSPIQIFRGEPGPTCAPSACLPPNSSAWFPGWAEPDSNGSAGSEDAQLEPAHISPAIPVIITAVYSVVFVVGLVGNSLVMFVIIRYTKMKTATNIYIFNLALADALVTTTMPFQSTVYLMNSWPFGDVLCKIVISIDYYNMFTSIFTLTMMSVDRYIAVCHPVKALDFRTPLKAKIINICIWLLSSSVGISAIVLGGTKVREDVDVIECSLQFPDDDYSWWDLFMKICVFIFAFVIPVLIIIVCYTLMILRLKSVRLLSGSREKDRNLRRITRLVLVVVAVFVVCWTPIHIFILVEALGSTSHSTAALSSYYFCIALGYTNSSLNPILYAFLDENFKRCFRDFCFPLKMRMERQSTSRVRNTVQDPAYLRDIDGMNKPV

Usually pEC50 stands for the negative decadic logarithm of the EC50, by convention in mol/L. Read a low pEC50 as a large EC50.

pEC50: −log10 of the molar value. Where only a bound is given, the exact number is not on record here.

The test concerns the target T1, cloned human kappa opioid receptor (Homo sapiens, UniProt P41145).
T1 construct: expressed in transfected cells; host or cells: CHO cells
The test can be described thus: cell-based.

For the compound `COc1ccc2c3c1O[C@H]1C(=O)CC[C@@]4(O)[C@@H](C2)N(C)CC[C@]314` [Oxycodone, oxycodone, reference compound], the pEC50 was below 3.30.
